Data on one compound can be found in patent publication US10239843B2 (CANCER RESEARCH TECHNOLOGY LIMITED, priority 2014, dated 2019).

Protein sequences, listed by entry. Tags and fused reporters are not part of them. Lines headed by an entry give the natural chain unless they say otherwise; changes in a name come on top.
UniProt Q86W56: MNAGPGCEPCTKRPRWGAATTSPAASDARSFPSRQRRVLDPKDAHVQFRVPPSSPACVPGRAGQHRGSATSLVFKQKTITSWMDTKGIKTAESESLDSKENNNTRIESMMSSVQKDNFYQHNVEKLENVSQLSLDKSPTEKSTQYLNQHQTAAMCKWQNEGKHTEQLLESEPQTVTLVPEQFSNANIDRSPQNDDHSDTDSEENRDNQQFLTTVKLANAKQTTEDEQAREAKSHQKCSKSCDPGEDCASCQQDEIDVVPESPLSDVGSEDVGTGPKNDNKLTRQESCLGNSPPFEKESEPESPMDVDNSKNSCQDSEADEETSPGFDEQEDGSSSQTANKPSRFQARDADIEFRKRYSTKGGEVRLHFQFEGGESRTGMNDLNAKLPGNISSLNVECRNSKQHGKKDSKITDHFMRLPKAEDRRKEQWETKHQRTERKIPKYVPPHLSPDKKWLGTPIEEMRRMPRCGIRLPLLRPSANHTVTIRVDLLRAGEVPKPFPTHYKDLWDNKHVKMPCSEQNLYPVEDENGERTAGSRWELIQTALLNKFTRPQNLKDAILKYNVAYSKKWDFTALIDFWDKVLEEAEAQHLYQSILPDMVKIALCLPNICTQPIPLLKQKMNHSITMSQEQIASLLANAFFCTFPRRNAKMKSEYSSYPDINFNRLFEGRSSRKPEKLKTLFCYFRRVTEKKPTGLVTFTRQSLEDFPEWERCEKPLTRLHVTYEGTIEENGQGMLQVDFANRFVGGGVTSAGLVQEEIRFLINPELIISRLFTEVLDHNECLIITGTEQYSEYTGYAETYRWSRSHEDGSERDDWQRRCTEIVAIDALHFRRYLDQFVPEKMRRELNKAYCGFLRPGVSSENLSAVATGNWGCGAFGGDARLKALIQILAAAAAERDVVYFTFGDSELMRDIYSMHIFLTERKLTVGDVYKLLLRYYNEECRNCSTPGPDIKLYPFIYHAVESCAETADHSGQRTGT

Structures are written as SMILES.

For the experiment, the target named is Human Full Length PARG (Homo sapiens (Human), UniProt Q86W56). Description: PARG enzyme assay (TR-FRET). It is filed as biochemical. As to conditions: read-out: PARG Biochem IC50 Geomean.

`CCn1c(=O)n(Cc2cnn(C)c2)c(=O)c2cc(S(=O)(=O)NC3(C)CC3)ccc21` [Example 291]: the IC50 is 0.134 µM.
